According to patent US11221326B2, “Method of preparing cells exhibiting drug resistance, method of screening anticancer drugs, and anticancer drug screening kit” (TOPPAN PRINTING CO., LTD., priority 2016, dated 2022):

Experiments:
Type in all cases: cell-based
[1] = test system: human colorectal adenocarcinoma cell line HT29; test: Drug sensitivity by viable count analysis (CNT %), HT29 cells cultured with exosomes from HCT116 (Example 1); conditions: Cetuximab 1 mg/mL, 72 hours
Description: (§1) As a cell culture vessel, a Transwell cell culture insert (#3470 manufactured by Corning Incorporated) was used. The culture medium used was D-MEM (043-30085 manufactured by Wako Pure Chemical Corporation) containing 10 vol/vol % of bovine serum (EXO-FBS-50A-1 manufactured by System Biosciences, LLC), and 1 vol/vol % of penicillin-streptomycin (168-23191 manufactured by Wako Pure Chemical Corporation).
(§2) Drugs were each assessed three times using a final concentration of 1 mg/mL of Cetuximab (Erbitux manufactured by Merck Serono).
As exosomes derived from drug resistant cell line, ones recovered from the culture supernatant of human colorectal adenocarcinoma cell line HCT116 (ATCC (registered trademark) CCL-247) by ultracentrifugation were used. […]
In viable count analysis, drug sensitivity was assessed by using a trypan blue solution and by counting cells in the fluorescence mode of a cell counter (Countess II) manufactured by Life Technologies Inc. […]
The cell structure dispersion is immersed in the trypan blue to count viable cells in the fluorescence mode of a cell counter (Countess II) manufactured by Life Technologies Corp. to assess the viable count. […]
(1) Viable cell counts resulting from Conditions A to D were analyzed using the method mentioned above to assess drug sensitivity.

[2] = test system: human colorectal cancer cell line NCI-H508; test: Drug sensitivity by viable count analysis (CNT %), NCI-H508 cells cultured with patient serum exosomes (Example 4); conditions: 72 hours
Description: as §1
Drugs were each assessed three times using final concentrations of 0.01 μg/mL and 0.1 μg/mL of Cetuximab.
Assessments were conducted for three conditions, i.e., equivalent to 0-μL serum (no addition of exosomes derived from serum), equivalent to 9-μL serum (addition of exosomes equivalent to 9-μL serum), and equivalent to 45-μL serum (addition of exosomes equivalent to 45-μL serum).
In viable count analysis, drug sensitivity was assessed, as in Example 1, by using a trypan blue solution and by counting cells in the fluorescence mode of a cell counter (Countess II) manufactured by Life Technologies Inc. In the drug sensitivity assessment,CNT(cell viability)%=(viable count with addition of drug)/(viable count with addition of no drug)×100(%) was used as an assessment value.
(1) 2×10^4 NCI^−H508 cells were seeded in a Transwell cell culture insert.
(2) An appropriate amount of culture medium was added to the Transwell cell culture insert, followed by culturing in a CO2 incubator (37° C., 5% CO2) for 24 hours.
(1) An appropriate amount of culture medium was mixed with exosomes to prepare exosome medium solutions containing exosomes equivalent to 0-μL serum (no addition of exosomes derived from serum), equivalent to 9-μL serum, and equivalent to 45-μL serum.
(2) Each solution was added to the Transwell cell culture insert, followed by culturing in a CO2 incubator (37° C., 5% CO2) for 6 hours.
(1) An appropriate amount of culture medium was mixed with a drug so as to have final concentrations of 0.01 μg/mL and 0.1 μg/mL.
(2) The mixture was added to the Transwell cell culture insert, followed by culturing in a CO2 incubator (37° C., 5% CO2) for 72 hours.

[3] = test system: human colorectal adenocarcinoma cell line HT29; test: Drug sensitivity by viable count analysis (CNT %), HT29 cells cultured with exosomes from A549 (Example 2); conditions: Cetuximab 1 mg/mL, 72 hours
From the text: as §1, with “serum with non-extracellular secreted vesicles” for “serum”
as §2
As exosomes derived from drug resistant cell line, a sample (exosomes) recovered from the culture supernatant of a human alveolar basal epithelial cell line A549 (ATCC (registered trademark) CCL-185) by ultracentrifugation were used. Assessments were conducted with respect to three conditions of 0 exosomes (Condition A) (no addition of the exosomes derived from the drug resistant cell line), 1×10^8 exosomes (Condition F), and 1×10^9 exosomes (Condition G).
In viable count analysis, drug sensitivity was assessed, as in Example 1, by using a trypan blue solution and by counting cells in the fluorescence mode of a cell counter (Countess II) manufactured by Life Technologies Inc. […]

## Cetuximab
[1]; 1×10^9 exosomes from HCT116 (Condition B)
  CNT % compared with 0 exosomes (Condition A), FIG. 1: predominantly higher CNT %
[1]; exosomes derived from serum of a healthy person (Condition C)
  Drug sensitivity, FIG. 1: more effectiveness
[2]; Cetuximab 0.01 μg/mL, exosomes equivalent to 0-μL serum derived from patient exhibiting resistance
  CNT (%) Average value: 53.6%
[2]; Cetuximab 0.01 μg/mL, exosomes equivalent to 9-μL serum derived from patient exhibiting resistance
  CNT (%) Average value: 54.8%
[2]; Cetuximab 0.01 μg/mL, exosomes equivalent to 45-μL serum derived from patient exhibiting no resistance
  CNT (%) Average value: 61.9%
[2]; Cetuximab 0.01 μg/mL, exosomes equivalent to 45-μL serum derived from patient exhibiting resistance
  CNT (%) Average value: 78.6%
[2]; Cetuximab 0.1 μg/mL, exosomes equivalent to 0-μL serum derived from patient exhibiting resistance
  CNT (%) Average value: 38.4%
[2]; Cetuximab 0.1 μg/mL, exosomes equivalent to 9-μL serum derived from patient exhibiting resistance
  CNT (%) Average value: 35.5%
[2]; Cetuximab 0.1 μg/mL, exosomes equivalent to 45-μL serum derived from patient exhibiting no resistance
  CNT (%) Average value: 41.7%
[2]; Cetuximab 0.1 μg/mL, exosomes equivalent to 45-μL serum derived from patient exhibiting resistance
  CNT (%) Average value: 56.0%
[3]; 1×10^8 exosomes from A549 (Condition F)
  CNT % compared with 0 exosomes (Condition A), FIG. 2: predominantly higher CNT %
[3]; 1×10^9 exosomes from A549 (Condition G)
  CNT % compared with 0 exosomes (Condition A), FIG. 2: predominantly higher CNT %
